Experimental data taken from US9320741B2, “Compositions and methods for treating neoplasia, inflammatory disease and other disorders” (Dana-Farber Cancer Institute, Inc., priority 2010, dated 2016).

Columns and labels:
[1] = test system: Keratin-14, Keratin-10, epidermal transglutaminase (TGM1); test: RT-PCR expression analysis of squamous tissue genes in NMC 797 cells; assay type: cell-based, human
[2] = target: BRD4(2) (Homo sapiens (Human), UniProt O60885); test: Alpha-assay acetyl-histone binding, BRD4 site 2; settings: 12-point dose response curve, read-out: Bio-assay IC50 BRD4(2)

| SMILES | induction of Keratin-14 [1] [fold] | IC50 [2] [nM] |
| --- | --- | --- |
| Cc1sc2c(c1C)C(c1ccc(Cl)cc1)=N[C@@H](CC(=O)OC(C)(C)C)c1nnc(C)n1-2 (single isomer, unassigned) [(+)-JQ1] | 30 |  |
| Cc1sc2c(c1C)C(c1ccc(Cl)cc1)=NC(CC(=O)NCCCN1CCN(C)CC1)c1nnc(C)n1-2 (centres unmarked) [JQ35] |  | 6.13 |
